Assay results taken from ChEMBL document CHEMBL4396872, “Pharmacokinetics-Driven Optimization of 4(3 H)-Pyrimidinones as Phosphodiesterase Type 5 Inhibitors Leading to TPN171, a Clinical Candidate for the Treatment of Pulmonary Arterial Hypertension” (J Med Chem, 2019).

Protein sequences, listed by entry. Tags and fused reporters are not part of them. Lines headed by an entry give the natural chain unless they say otherwise; changes in a name come on top.
UniProt P27815: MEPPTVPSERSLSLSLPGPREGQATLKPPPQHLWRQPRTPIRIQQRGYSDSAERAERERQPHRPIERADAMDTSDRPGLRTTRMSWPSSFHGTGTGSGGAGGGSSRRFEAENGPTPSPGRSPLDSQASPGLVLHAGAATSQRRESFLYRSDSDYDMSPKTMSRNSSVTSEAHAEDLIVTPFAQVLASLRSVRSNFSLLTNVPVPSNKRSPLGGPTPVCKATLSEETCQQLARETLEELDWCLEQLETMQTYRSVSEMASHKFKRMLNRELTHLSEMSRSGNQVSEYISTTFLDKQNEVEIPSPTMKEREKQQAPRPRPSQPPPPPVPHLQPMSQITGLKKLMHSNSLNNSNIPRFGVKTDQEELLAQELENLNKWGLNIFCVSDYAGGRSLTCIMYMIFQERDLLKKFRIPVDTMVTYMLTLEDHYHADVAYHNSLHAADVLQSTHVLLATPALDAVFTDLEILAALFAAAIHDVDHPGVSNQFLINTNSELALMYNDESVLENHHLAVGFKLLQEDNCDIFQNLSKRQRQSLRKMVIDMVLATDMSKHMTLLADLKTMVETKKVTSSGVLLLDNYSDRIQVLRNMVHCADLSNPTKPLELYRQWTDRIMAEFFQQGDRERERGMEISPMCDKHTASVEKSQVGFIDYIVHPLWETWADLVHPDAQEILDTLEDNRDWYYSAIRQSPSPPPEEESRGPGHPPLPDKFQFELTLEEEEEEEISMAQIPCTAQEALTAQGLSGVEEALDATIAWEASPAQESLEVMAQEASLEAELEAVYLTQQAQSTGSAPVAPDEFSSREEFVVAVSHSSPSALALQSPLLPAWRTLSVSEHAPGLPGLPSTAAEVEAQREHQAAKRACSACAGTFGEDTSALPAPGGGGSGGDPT
UniProt Q08499: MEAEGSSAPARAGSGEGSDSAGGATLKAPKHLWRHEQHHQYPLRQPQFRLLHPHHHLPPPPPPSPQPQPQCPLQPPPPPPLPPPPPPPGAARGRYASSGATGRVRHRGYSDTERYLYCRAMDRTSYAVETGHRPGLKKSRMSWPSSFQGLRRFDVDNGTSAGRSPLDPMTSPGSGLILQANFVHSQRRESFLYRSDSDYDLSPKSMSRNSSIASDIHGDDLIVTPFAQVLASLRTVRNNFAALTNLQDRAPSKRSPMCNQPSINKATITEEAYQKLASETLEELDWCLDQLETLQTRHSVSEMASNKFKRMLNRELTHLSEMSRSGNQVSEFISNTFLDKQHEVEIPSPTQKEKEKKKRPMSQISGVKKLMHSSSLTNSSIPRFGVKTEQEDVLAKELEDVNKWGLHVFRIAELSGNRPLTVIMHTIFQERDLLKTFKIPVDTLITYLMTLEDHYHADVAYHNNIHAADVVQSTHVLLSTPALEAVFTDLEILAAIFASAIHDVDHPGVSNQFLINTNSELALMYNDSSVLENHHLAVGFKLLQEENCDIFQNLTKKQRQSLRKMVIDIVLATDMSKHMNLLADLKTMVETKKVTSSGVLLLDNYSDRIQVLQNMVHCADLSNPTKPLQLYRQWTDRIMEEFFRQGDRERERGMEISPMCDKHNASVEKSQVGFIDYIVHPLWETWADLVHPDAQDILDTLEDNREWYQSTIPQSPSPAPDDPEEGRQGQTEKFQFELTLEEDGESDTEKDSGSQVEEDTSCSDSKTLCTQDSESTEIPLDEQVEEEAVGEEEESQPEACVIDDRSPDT
UniProt Q07343: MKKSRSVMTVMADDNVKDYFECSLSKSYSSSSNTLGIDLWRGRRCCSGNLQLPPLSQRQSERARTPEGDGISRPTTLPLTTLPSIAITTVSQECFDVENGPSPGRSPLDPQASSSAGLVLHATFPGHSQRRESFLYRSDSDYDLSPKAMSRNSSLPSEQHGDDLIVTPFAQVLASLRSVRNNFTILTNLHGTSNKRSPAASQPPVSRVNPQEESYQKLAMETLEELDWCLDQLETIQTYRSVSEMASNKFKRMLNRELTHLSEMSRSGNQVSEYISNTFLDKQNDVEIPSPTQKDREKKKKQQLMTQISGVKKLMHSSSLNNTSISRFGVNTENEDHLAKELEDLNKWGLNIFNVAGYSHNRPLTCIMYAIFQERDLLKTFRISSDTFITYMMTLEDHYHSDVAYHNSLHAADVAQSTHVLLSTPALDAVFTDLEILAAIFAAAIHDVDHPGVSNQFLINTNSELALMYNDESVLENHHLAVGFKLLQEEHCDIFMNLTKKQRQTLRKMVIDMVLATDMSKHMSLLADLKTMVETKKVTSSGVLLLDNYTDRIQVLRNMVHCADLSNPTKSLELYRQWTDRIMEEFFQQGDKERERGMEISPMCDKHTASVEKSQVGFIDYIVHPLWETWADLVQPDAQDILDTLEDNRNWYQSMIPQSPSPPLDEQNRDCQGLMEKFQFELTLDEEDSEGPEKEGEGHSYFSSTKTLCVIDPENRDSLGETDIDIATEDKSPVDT
UniProt Q08493: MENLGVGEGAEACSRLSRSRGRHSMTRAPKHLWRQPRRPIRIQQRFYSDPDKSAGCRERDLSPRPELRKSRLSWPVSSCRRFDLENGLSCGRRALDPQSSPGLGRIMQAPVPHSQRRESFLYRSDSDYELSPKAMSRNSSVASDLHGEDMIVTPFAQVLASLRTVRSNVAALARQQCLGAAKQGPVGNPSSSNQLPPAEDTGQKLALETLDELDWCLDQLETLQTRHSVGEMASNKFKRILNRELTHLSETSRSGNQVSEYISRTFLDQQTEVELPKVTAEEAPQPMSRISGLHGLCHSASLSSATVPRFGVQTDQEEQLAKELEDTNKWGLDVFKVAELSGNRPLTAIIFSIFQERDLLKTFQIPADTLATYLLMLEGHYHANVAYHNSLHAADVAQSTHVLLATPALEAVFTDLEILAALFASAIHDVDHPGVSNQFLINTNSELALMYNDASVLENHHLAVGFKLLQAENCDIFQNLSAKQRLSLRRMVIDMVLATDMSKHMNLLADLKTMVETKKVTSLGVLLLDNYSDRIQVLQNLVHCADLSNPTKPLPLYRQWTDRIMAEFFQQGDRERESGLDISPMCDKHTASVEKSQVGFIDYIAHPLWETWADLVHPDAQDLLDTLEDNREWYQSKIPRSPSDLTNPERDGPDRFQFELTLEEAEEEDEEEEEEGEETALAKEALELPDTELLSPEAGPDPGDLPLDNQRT

Target: Phosphodiesterase 4 (Homo sapiens, UniProt P27815+Q08499+Q07343+Q08493)
Assay: Inhibition of N-terminal GST-tagged human PDE4 expressed in baculovirus infected sf9 cells using [3H]cAMP as substrate measured after 30 mins by scintillation proximity assay
Assay type: ADME

- IC50: > 10 µM
Structure (SMILES): CN1CC(=O)N2[C@H](c3ccc4c(c3)OCO4)c3[nH]c4ccccc4c3C[C@@H]2C1=O
